# Values quoted from earlier work in PMC10308680 (Journal of Biomedical Science, 2023).
# Details: in vivo; cited from earlier work
substance,measurement,value
abatacept,side effects,causing side effects
